Where “and” joins values, the source holds several entries; their conditions need not be identical. Identical values can stand only once.
Key:
BCRP = molecular target: T1, BCRP (Homo sapiens, UniProt Q9UNQ0); experiment: Transporter inhibition using membrane vesicles; details: uptake of rosuvastatin by BCRP, single replicates
T1 sequence (Q9UNQ0 1-655): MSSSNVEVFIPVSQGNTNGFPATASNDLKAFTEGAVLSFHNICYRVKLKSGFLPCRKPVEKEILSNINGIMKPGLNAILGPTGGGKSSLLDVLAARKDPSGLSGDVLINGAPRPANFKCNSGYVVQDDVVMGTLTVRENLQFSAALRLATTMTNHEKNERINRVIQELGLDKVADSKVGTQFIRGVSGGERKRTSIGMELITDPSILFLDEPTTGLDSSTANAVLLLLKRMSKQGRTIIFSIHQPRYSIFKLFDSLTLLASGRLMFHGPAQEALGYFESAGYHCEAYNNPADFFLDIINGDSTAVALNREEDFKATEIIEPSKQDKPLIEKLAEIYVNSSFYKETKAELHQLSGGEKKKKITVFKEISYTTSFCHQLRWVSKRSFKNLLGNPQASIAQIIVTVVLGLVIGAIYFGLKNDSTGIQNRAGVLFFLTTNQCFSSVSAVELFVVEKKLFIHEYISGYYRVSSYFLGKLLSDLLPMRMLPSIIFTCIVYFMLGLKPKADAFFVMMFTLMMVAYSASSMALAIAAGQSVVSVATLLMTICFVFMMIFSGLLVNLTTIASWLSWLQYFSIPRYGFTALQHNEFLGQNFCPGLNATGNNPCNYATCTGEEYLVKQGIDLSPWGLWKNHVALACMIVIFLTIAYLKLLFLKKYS

Sequences of proteins named here, by UniProt entry; tags and fusion partners are left off. Residues count along the entry.
UniProt Q86VL8, 1-566 isoform Q86VL8-3: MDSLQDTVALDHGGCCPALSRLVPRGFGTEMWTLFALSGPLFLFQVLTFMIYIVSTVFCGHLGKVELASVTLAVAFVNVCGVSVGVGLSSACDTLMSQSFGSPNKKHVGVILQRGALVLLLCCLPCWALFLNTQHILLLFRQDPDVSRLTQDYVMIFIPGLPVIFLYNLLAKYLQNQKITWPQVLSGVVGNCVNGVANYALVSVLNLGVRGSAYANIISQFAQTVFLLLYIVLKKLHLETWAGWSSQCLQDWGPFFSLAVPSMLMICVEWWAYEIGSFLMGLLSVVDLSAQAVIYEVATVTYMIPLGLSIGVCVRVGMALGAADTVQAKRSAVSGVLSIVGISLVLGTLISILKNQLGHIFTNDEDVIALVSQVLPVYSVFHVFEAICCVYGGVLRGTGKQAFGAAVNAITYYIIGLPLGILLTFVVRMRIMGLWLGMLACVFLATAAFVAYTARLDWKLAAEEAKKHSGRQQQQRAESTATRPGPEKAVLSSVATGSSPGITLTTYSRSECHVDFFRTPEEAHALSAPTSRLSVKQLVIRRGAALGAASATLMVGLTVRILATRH

OCT1 = molecular target: T2, OCT1 (Homo sapiens, UniProt O15245); experiment: Transporter inhibition using transfected HEK293 cells; type: in vitro ADME; details: uptake of [14C]-metformin by OCT1, single replicates
T2 construct: expressed in transfected cells; host or cells: HEK293
T2 sequence (O15245 1-554): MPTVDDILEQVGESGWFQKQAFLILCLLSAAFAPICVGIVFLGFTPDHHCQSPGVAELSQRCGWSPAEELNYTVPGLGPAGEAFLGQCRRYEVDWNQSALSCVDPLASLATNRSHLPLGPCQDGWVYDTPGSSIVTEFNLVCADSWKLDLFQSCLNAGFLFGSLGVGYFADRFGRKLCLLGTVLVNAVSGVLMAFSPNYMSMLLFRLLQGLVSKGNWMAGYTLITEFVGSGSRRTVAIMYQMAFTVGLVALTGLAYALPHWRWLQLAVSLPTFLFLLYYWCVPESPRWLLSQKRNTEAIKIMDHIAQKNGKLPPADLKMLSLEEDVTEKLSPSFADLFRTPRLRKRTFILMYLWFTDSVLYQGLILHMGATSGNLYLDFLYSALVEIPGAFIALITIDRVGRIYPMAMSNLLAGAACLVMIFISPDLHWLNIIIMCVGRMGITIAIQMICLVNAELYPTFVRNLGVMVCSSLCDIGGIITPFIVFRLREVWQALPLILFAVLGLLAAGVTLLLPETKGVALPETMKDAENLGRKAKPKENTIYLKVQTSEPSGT

MATE2K = molecular target: T3, MATE2K (Homo sapiens, UniProt Q86VL8); experiment: as above; type: in vitro ADME; details: uptake of [14C]-metformin by MATE2K, single replicates
T3 construct: expressed in transfected cells; host or cells: HEK293

OATP1B3 = molecular target: T4, OATP1B3 (Homo sapiens, UniProt Q9NPD5); experiment: as above; details: uptake of Rosuvastatin by OATP1B3; inhibitor 1.1719 uM
T4 sequence (Q9NPD5 1-702): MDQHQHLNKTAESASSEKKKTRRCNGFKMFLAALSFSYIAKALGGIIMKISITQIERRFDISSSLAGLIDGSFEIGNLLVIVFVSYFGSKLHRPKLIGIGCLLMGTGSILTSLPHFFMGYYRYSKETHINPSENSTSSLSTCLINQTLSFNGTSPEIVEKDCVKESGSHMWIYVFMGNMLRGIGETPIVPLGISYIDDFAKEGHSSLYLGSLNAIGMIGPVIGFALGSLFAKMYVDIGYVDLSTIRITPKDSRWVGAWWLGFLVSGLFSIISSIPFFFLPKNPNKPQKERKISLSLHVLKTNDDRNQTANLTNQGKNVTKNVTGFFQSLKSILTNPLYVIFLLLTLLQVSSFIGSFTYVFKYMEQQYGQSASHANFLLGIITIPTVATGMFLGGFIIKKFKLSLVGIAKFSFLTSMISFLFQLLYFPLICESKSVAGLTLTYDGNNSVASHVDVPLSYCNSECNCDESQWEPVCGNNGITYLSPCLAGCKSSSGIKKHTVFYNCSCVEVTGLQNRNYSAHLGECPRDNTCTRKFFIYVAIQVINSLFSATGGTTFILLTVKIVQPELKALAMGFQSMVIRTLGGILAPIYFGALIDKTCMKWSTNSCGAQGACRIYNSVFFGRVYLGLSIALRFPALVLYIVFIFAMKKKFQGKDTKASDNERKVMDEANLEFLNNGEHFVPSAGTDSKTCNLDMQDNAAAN

[1] = inhibitor concentration 0.0732 uM
[2] = inhibitor concentration 1.1719 uM
[3] = inhibitor concentration 4.6875 uM
[4] = inhibitor concentration 18.7500 uM
[5] = inhibitor concentration 300.0000 uM
[6] = inhibitor concentration 0.2930 uM

SMILES	% BCRP Uptake Activity (BCRP; [1])	% BCRP Uptake Activity (BCRP; [2])	% BCRP Uptake Activity (BCRP; [3])	% BCRP Uptake Activity (BCRP; [4])	% BCRP Uptake Activity (BCRP; [5])	% Uptake Activity (OCT1; [1])	% Uptake Activity (OCT1; [6])	% Uptake Activity (OCT1; [2])	% Uptake Activity (OCT1; [3])	% Uptake Activity (OCT1; [4])	% Uptake Activity (OCT1; [5])	% Uptake Activity (MATE2K; [1])	% Uptake Activity (MATE2K; [6])	% Uptake Activity (MATE2K; [2])	% Uptake Activity (MATE2K; [3])	% Uptake Activity (MATE2K; [4])	% Uptake Activity (MATE2K; [5])	% Uptake Activity (OATP1B3)
COc1cccc2[nH]c(C(=O)N[C@@H](CC(C)C)C(=O)N[C@@H](C[C@@H]3CCNC3=O)C(=O)COP(=O)(O)O)cc12 [PF-07304814]	77.5229% and 85.7155% and 80.6739%	61.2007% and 79.4135% and 87.6061%	91.3873% and 117.225% and 86.9759%	86.9759% and 92.0175%	32.6527% and 38.5136% and 39.6479%	107.03% and 99.34% and 105.72%	114.31%	97.68% and 94.70%	106.96%	94.56% and 92.76% and 89.50%	76.55% and 79.04% and 87.08%	89.770% and 92.902%	91.649% and 84.760% and 98.330%	92.693% and 86.848%	82.046% and 97.286% and 91.441%	92.484% and 95.825% and 87.056%	76.618% and 88.309% and 77.662%	96.4% and 90.8%
COc1cccc2[nH]c(C(=O)N[C@@H](CC(C)C)C(=O)N[C@@H](C[C@@H]3CCNC3=O)C(=O)CO)cc12 [PF-00835231]	87.6061% and 75.0021%		70.5907% and 67.4397% and 66.8095%	41.2864% and 39.0177% and 40.1521%	1.13% and 1.25% and 2.277%	106.96%	105.99% and 111.95% and 107.52%	95.32%	99.34% and 96.29%	62.28% and 65.95% and 66.02%	14.55% and 14.34% and 14.96%	89.144% and 88.309% and 82.881%	75.783% and 79.749%	90.397% and 94.363% and 79.123%	117.745% and 88.935%	82.463% and 84.760% and 79.123%	37.161% and 37.370% and 34.238%	
